Here are results for one substance from US12329745B2, “Methods and compositions for treating glucocorticoid excess” (Sparrow Pharmaceuticals, Inc., priority 2022, dated 2025).

Amino acid sequences for entries named in this document (tags omitted). A change or cut given only in a name is not applied to a line headed by its entry.
UniProt P28845: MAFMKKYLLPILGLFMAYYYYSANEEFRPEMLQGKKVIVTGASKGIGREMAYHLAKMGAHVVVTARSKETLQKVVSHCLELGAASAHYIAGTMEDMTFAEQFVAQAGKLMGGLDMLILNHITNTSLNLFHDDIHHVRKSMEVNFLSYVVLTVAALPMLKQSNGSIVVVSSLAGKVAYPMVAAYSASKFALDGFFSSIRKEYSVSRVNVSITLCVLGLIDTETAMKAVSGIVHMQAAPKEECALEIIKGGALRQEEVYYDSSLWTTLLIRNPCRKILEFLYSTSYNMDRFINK

The assay addresses HSD-1 (Homo sapiens, UniProt P28845). Briefly: Surface plasmon resonance binding kinetics in presence of NADPH (residence time). The following applies: 300 μM NADPH; reciprocal of the dissociation rate constant. From the text: Pseudo-irreversible HSD-1 inhibitors can be identified via in vitro enzyme kinetics evaluation, in which they are expected to show longer enzyme residence times compared to other HSD-1 inhibitors. Surface plasmon resonance (SPR) is the resonant oscillation of conduction electrons at the interface between negative and positive permittivity material stimulated by incident light. When a protein is bound to a surface, SPR can be used to detect ligand binding to the protein. […] Association and dissociation of test compounds were monitored in the presence of 300 µM NADPH throughout the experiment.

For the substance BVT-2733, the “Residence Time” value is on record as 65 s.
